{
  "sequences": {"note": "By UniProt entry, the sequences of proteins in these tests, tags left out.", "UniProt P08183, whole entry": "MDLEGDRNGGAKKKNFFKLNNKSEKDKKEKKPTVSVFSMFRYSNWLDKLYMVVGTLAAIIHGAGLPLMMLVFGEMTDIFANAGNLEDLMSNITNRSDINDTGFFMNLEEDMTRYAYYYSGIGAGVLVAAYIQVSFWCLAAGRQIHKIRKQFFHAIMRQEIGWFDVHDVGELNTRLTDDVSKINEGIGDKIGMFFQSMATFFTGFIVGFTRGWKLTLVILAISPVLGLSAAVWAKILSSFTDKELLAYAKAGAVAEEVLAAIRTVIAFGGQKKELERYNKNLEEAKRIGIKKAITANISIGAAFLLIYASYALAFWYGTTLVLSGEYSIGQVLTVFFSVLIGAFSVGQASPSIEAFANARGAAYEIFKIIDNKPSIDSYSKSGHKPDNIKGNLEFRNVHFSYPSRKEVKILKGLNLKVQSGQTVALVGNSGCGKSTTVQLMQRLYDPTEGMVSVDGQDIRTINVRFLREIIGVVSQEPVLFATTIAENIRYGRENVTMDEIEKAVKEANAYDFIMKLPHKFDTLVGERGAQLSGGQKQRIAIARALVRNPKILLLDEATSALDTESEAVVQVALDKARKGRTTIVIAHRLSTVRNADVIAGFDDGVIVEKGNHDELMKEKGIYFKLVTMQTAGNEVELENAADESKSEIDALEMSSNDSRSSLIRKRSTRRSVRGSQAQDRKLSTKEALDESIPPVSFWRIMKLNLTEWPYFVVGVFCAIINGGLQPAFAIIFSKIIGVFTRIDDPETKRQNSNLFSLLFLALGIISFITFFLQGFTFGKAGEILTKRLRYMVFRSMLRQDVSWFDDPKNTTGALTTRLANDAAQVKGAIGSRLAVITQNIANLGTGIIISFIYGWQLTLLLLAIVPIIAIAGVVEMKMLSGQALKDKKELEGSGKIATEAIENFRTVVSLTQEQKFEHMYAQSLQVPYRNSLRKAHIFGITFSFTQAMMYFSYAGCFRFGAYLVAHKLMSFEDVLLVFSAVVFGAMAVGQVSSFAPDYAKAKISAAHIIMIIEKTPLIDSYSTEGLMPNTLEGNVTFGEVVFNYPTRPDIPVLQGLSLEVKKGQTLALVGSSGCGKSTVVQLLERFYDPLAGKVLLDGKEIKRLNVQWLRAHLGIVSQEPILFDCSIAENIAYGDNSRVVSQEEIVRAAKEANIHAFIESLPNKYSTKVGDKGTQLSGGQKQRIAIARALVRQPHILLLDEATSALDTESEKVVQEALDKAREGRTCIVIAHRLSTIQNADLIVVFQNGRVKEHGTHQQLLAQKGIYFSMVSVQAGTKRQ", "UniProt Q9NWZ3, whole entry": "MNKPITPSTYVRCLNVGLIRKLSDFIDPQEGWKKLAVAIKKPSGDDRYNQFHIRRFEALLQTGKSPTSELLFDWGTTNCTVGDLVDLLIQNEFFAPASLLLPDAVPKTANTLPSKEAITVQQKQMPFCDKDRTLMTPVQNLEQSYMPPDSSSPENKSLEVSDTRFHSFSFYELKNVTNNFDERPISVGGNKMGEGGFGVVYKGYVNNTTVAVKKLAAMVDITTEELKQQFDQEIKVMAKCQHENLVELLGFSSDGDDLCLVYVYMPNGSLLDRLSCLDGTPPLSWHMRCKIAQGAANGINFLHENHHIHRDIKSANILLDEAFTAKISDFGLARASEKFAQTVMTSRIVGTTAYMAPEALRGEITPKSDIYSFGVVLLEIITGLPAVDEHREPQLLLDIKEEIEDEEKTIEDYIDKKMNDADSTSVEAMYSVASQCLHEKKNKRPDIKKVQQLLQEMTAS"},
  "source": "patent US20230002361A1",
  "about": "“2H-INDAZOLE DERIVATIVES AND THEIR USE IN THE TREATMENT OF DISEASE” (BIOGEN MA INC., priority 2019, published 2023)",
  "key": {"[1]": {"target": "human MDR1 transfected MDCK cells (Homo sapiens, UniProt P08183)", "assay": "MDR1-MDCK assay (efflux ratio)", "conditions": "1 μM compound, 120 minutes incubation", "method": "• The assay makes use of human MDR1 transfected MDCK cells (NIH cell line in-licensed from Absorption Systems) • The compounds are tested at 1 μM concentration prepared in transport buffer (Hank's balanced salt solution with HEPES) • MDR1-MDCK cell are cultured for 7 days in 96 well transwell insert plates (Corning). Insert plates are washed before the assay and TEER (Trans epithelial electric resistance) is measured. • These plates are loaded with test compound solution 85 μL for A-B transport and 260 μL for B-A transport in the respective donor compartment. The volume of receiver buffer (Transport buffer supplemented with 1% BSA) in the respective receiver compartment is 250 and 75 μL. • 10 μL samples is taken from donor compartment (T=0 timepoint) • Assay plates are incubated for 120 minutes. • At 120 minutes (T=120 timepoint) samples from respective donor (10 uL) and receiver (50 μL) compartments is taken. • After addition of 40 μL transport buffer with BSA to donor samples, crash solution (Acetonitrile with internal standard, 110 μL) is added to all samples. • After centrifugation 50 μL supernatant is transferred to separate plate and mixed with 50 μL water. • Samples are analyzed using LC-MS/MS coupled with high throughput injection system. • Analyte/internal standard area ratios are used for apparent permeability (Papp), efflux ratio and mass recovery estimation based on equations below.\nMass balance=100×((Vr×Cr^final)+(Vd×Cd^final))/(Vd×CE) • Where: • dCr/dt is the cumulative concentration in the receiver compartment versus time in μM s^−1 • Vr is the volume of the receiver compartment in cm^3 • Vd is the volume of the donor compartment in cm^3 • A is the area of the insert (0.143 cm^2 for 96-well insert) • CE is the estimated experimental concentration (Time=0) of the dosing solution • Cr^final is the concentration of the receiver at the end of the incubation period • Cd^final is the concentration of the donor at the end of the incubation period."}, "[2]": {"target": "IRAK4 (Homo sapiens, UniProt Q9NWZ3)", "assay": "IRAK4 MSD Biochemical Assay (1 mM ATP, 2 h)"}},
  "note": "Where two headings read alike, the source gives them in different places.",
  "data": [
    {"compound": "CC(C)Oc1cc2nn(C3CCOCC3)cc2cc1C(=O)Nc1ccccn1", "values": [
      {"measurement": "MDR1-MDCK Efflux Ratio; (B-A/A-B)", "setting": "[1]; tested form: formate", "result": 1.6},
      {"measurement": "IC50", "setting": "[2]; read-out: IRAK4 MSD Biochemical Assay (1 mM ATP, 2 h) IC50, room temperature, tested form: formate", "result": 9.9, "unit": "nM"}
    ]},
    {"compound": "CC(C)Oc1cc2nn(C3CCOCC3)cc2cc1C(=O)Nc1nccc(C(F)F)n1", "values": [
      {"measurement": "MDR1-MDCK Efflux Ratio; (B-A/A-B)", "setting": "[1]; tested form: HCl", "result": 5.4},
      {"measurement": "IC50", "setting": "[2]; read-out: IRAK4 MSD Biochemical Assay (1 mM ATP, 2 h) IC50, room temperature, tested form: HCl", "result": 15.4, "unit": "nM"}
    ]},
    {"compound": "Cc1cccc(NC(=O)c2cc3cn(CC4CCOC4)nc3nc2OC(C)C)c1F", "note": "(stereo not drawn)", "values": [
      {"measurement": "MDR1-MDCK Efflux Ratio; (B-A/A-B)", "setting": "[1]", "result": 1},
      {"measurement": "IC50", "setting": "[2]; read-out: IRAK4 MSD Biochemical Assay (1 mM ATP, 2 h) IC50, room temperature", "result": 1.3, "unit": "nM"}
    ]}
  ]
}
